This is an account of results in US11850280B1 (priority 2020, dated 2023).

The conditions of this data set: in vivo.

On to Ivermectin, for which the “release and uptake in the blood” value was “successfully releases the Ivermectin post-rumen, allowing for uptake in the blood”.
